Measurements published in ChEMBL document CHEMBL1949549, “Concise synthesis of (+)-conduritol F and inositol analogues from naturally available (+)-proto-quercitol and their glucosidase inhibitory activity” (Bioorg Med Chem Lett, 2012).

The chains behind the UniProt entries cited, without tags or fusion partners. Residues count along the entry.
UniProt P23739, 1014-1841 limits assumed: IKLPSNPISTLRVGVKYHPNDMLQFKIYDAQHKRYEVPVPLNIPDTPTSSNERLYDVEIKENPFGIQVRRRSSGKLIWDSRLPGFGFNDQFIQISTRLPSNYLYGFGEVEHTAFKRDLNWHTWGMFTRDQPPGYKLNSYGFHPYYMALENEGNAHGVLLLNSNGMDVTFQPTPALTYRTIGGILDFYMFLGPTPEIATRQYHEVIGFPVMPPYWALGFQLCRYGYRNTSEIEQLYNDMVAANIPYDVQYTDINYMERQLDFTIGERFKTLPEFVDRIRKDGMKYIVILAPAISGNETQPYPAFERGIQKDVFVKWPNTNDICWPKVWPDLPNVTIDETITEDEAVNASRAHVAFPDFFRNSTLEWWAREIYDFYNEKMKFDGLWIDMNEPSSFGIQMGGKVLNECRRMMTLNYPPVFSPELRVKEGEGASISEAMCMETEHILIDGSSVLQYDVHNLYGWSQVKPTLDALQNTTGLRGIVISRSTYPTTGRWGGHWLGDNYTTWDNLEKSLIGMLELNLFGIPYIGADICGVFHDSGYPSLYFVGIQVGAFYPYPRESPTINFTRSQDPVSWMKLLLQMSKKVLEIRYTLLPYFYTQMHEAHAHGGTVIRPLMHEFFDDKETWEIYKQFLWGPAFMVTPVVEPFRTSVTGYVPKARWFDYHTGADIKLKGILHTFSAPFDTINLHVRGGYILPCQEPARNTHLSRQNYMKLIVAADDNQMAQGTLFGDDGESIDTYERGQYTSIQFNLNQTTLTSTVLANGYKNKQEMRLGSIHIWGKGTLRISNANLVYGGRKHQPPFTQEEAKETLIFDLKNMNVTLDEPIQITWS
UniProt P23739, 1-1013 limits assumed: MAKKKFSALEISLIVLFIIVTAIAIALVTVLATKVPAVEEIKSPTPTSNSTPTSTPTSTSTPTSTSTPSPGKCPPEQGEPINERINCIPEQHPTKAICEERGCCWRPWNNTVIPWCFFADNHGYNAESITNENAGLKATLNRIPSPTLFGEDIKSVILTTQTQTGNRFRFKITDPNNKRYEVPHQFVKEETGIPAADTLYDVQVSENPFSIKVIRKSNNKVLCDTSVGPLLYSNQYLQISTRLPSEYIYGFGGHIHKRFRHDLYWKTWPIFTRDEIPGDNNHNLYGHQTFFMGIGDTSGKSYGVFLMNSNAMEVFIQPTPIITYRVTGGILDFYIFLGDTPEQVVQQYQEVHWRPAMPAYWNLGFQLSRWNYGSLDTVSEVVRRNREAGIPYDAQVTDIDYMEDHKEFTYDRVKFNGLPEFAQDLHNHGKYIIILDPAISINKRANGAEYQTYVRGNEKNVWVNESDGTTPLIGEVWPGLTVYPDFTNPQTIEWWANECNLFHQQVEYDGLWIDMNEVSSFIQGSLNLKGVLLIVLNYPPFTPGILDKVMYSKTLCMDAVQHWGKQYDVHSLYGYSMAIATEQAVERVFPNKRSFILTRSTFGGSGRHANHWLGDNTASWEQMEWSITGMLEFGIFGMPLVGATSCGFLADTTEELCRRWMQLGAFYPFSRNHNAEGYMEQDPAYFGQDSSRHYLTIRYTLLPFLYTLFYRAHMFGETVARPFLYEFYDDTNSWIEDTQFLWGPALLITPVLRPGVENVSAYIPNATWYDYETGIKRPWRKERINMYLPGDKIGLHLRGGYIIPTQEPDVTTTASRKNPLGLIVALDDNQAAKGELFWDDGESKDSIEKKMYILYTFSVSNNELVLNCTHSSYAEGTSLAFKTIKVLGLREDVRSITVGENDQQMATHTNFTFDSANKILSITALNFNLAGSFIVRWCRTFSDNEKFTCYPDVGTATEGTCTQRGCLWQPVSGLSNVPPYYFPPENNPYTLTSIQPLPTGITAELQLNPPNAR

Target: Sucrase-isomaltase, intestinal (Rattus norvegicus, UniProt P23739)
Test: Inhibition of rat intestinal alpha-glucosidase sucrase using sucrose as substrate preincubated for 10 mins prior substrate addition measured after 40 mins by spectrophotometry

- IC50: 2380 nM
Compound: C[C@H]1O[C@H](O[C@H]2[C@H](O)[C@@H](O)[C@@H](O[C@H]3[C@H](O)[C@@H](O)C(O)O[C@@H]3CO)O[C@@H]2CO)[C@H](O)[C@@H](O)[C@@H]1N[C@H]1C=C(CO)[C@@H](O)[C@H](O)[C@H]1O (stereo partly specified) [ACARBOSE]
